In this assay the test system is BMDC. Put plainly: CCL2 release from BMDC (ELISA). The assay is classed as cell-based, C57BL/6 mice. As to conditions: pre-incubated 20 min, then 75 μM DOTAP 24 h; PD 20 μM, SB 10 μM, U 10 μM, PTx 200 ng/mL, PP2 10 μM, Wort 200 nM, GF 200 nM; FIG. 18. For orientation: An ELISA detects its analyte on a solid surface through an enzyme-linked reagent.

On to `C[S+]([O-])c1ccc(-c2nc(-c3ccncc3)c(-c3ccc(F)cc3)[nH]2)cc1` (centres unmarked), for which the “Effect on DOTAP-induced CCL2 production” value is recorded as “synergistically increased CCL2 production”.
The entry for `N#CC(=C(/N)Sc1ccccc1N)/C(C#N)=C(\N)Sc1ccccc1N` is “almost completely abolished CCL2 production”.

For the origin of these results see patent US8877206B2, “Stimulation of an immune response by cationic lipids” (PDS Biotechnology Corporation, priority 2007, dated 2014).
